Assay results as given in PMC11819963, “In Vitro CO-Releasing and Antioxidant Properties of Sulfonamide-Based CAI-CORMs in a H2O2-Stimulated Human Achilles Tendon-Derived Cell Model” (Molecules, 2025).

By UniProt entry, the sequences of proteins in these tests, tags left out. Where a name states a change or a piece, a line headed by the entry shows the natural chain unless it says otherwise.
UniProt P00915: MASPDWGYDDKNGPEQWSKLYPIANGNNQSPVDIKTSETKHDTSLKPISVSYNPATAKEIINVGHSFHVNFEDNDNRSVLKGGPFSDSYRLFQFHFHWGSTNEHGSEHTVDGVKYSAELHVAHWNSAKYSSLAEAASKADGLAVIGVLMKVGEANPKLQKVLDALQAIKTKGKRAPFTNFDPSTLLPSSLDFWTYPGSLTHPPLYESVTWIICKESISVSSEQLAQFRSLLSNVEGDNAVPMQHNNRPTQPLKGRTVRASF

Columns and labels:
hCA II = hCA II (Homo sapiens, UniProt P00918); experiment: stopped-flow CO2 hydrase assay, hCA II; type: biochemical; settings: mean from three assays, errors ±5–10%
Procedure: The CO2 concentrations ranged from 1.7 to 17 mM for the determination of the kinetic parameters and inhibition constants. […] The uncatalysed rates were determined in the same manner and subtracted from the total observed rates. […] The inhibition constants were obtained by non-linear least-squares methods using PRISM 3 and the Cheng–Prusoff equation and represent the mean from at least three different determinations.

hCA I = hCA I (Homo sapiens, UniProt P00915); settings: stopped-flow CO2 hydrase assay; cells marked a; cited from earlier work

4-(Diprop-2′-ynylamino)benzenesulfonamide hexacarbonyldicobalt [1c]
Ki (hCA II): 165 nM | Ki (hCA I): 876 nM
